Reference: patent publication US20250034159A1, “INHIBITORS OF EPIDERMAL GROWTH FACTOR RECEPTOR” (ORIC Pharmaceuticals, Inc., priority 2021, published 2025)

Sequences of proteins named here, by UniProt entry; tags and fusion partners are left off. A line that says so, or that is headed by a name, gives the form on record, which may keep a tag or linker. Residues count along the entry.
UniProt P00533, 25-1210 C797S/L858R: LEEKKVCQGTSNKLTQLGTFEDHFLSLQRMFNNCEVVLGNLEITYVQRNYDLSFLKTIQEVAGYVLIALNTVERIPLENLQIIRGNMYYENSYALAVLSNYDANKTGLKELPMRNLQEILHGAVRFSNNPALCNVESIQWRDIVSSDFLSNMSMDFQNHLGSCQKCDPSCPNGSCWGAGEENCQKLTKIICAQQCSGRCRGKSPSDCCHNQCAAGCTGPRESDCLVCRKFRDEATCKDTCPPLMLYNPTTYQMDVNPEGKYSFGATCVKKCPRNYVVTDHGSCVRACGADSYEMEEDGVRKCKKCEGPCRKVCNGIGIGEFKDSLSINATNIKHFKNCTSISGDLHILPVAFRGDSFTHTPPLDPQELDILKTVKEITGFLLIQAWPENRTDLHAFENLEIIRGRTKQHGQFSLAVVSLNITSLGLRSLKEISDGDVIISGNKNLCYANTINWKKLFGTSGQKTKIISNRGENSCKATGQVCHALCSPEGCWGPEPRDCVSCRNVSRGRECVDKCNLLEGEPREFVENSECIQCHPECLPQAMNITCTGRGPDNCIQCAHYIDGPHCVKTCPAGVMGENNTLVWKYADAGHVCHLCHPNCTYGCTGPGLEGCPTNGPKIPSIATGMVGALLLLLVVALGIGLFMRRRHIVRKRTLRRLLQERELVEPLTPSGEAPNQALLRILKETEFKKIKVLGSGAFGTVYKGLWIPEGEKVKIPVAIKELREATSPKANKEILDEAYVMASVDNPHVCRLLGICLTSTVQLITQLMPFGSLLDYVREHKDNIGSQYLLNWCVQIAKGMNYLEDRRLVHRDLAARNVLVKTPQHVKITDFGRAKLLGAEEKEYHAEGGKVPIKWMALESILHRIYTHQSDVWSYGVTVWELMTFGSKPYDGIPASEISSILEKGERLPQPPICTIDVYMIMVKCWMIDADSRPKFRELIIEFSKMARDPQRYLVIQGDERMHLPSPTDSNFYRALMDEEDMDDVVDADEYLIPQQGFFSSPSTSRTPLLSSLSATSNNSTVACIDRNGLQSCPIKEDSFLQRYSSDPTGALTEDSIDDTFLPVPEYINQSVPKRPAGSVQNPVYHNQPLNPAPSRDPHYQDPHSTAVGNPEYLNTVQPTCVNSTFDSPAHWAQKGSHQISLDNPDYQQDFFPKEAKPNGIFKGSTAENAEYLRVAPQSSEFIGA
UniProt P00533, other isoform, or with tags, fused parts or gaps C797S/del 1-668/del 746-750 limits assumed: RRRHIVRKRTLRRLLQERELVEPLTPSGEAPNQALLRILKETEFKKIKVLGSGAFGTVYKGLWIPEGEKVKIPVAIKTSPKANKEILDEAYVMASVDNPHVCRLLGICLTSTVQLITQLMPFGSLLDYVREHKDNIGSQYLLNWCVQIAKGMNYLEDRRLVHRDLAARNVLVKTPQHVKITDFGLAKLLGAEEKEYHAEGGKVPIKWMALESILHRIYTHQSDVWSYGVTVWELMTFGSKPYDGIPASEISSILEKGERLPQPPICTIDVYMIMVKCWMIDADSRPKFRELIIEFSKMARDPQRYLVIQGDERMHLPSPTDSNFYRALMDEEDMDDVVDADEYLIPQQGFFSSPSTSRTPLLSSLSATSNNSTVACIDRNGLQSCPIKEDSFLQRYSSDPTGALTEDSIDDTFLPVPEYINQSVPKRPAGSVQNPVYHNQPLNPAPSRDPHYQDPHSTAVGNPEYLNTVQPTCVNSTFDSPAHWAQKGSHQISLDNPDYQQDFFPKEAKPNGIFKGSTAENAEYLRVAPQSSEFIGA

Legend:
[1] = target: recombinant human EGFR L858R/C797S double mutant protein (Homo sapiens (Human), UniProt P00533, C797S/L858R); experiment: Biological Activity Assay B: biochemical assay against EGFR L858R/C797S protein (EGFR LR/CS)
Experimental: (§1) In Row A of a 384-well polypropylene plate, was added 48 μL of DMSO. In wells A1 and A24, were added 12 μL of DMSO. […] To a well in Row A were added 12 μL of each 10 mM test compound stock (100% DMSO). […] The final intermediate dilution plate contained 4×16-point compound serial dilutions in assay buffer. The DMSO concentration was 10%. The intermediate compound dilution plate was transferred to the Bravo and the “5 uL dispense into ARP.pro” protocol was run. To the black low volume assay ready plates, were added 5 μL of 40 uM Phosphosens peptide sensor/4 mM ATP working solution to each well. […] To column 24, was added 10 μL of assay buffer. The final DMSO concentration was 2.5%. […] The plates were sealed with the TopSeal-A Plus plate seals. […] Set for 90 cycles with 120 second interval. […] The slope of each curve was constructed using Dotmatics in each well, and each IC50s was calculated using a 4-parameter fit model.

[2] = target: recombinant human EGFR exon 19 deletion/C797S double mutant protein (Homo sapiens (Human), UniProt P00533, C797S/DEL746-750); experiment: Biological Activity Assay C: biochemical assay against EGFR exon 19 deletion/C797S protein (EGFR d19/CS)
Experimental: as §1

SMILES	IC50 [1] [pM]	IC50 [2] [pM]
[2H]C([2H])([2H])n1cc(-c2ncnc3oc(-c4ccccc4)cc23)c(-c2ccc(F)cc2)n1 [Example 48, 4-[3-(4-Fluorophenyl)-1-(2H3)methyl-1H-pyrazol-4-yl]-6-phenylfuro[2,3-d]pyrimidine]	400	374
Cn1cc(-c2ncnc3oc(-c4ccccc4)cc23)c(-c2ccc(F)cc2)n1 [Example 63, 4-[3-(4-Fluorophenyl)-1-methyl-1H-pyrazol-4-yl]-6-phenylfuro[2,3-d]pyrimidine]	474	459
